PubChem BioAssay AID434970 (Sanford-Burnham Center for Chemical Genomics, 2010)
The list shows a part of the results, in another mix than the full data. Active and inactive are the calls of the source. Rule as the data show it: active = activity change below about -85%; inactive = the rest.

test system: intestinal alkaline phosphatase [Mus musculus]; experiment: activators of mouse IAP, confirmation, biochemical, luminescence, single concentration (AID 434970); conditions: purified mouse IAP, CDP-Star luminescence, 30 min; at 10 µM; hits give low values

SMILES	activity change, negative = activation
COc1ccc(OP(C)(=O)Nc2cccc(F)c2)cc1 (centres undefined)	inactive: 2.95%
CCOP(C)(=S)SCC(=O)NC(C)(CC)C(=O)O (centres undefined)	inactive: 9.6%
COc1ccc(OP(C)(=O)Nc2cccc(Br)c2)cc1 (centres undefined)	inactive: -6.45%
CCN(CC)CC(O)COC(=O)C(O)(c1ccccc1)C1CCCCC1 (centres undefined)	inactive: 4.6%
